{"sequences": {"note": "By UniProt entry, the sequences of proteins in these tests, tags left out. Residues count along the entry.", "UniProt O00763, 129-2458 limits assumed": "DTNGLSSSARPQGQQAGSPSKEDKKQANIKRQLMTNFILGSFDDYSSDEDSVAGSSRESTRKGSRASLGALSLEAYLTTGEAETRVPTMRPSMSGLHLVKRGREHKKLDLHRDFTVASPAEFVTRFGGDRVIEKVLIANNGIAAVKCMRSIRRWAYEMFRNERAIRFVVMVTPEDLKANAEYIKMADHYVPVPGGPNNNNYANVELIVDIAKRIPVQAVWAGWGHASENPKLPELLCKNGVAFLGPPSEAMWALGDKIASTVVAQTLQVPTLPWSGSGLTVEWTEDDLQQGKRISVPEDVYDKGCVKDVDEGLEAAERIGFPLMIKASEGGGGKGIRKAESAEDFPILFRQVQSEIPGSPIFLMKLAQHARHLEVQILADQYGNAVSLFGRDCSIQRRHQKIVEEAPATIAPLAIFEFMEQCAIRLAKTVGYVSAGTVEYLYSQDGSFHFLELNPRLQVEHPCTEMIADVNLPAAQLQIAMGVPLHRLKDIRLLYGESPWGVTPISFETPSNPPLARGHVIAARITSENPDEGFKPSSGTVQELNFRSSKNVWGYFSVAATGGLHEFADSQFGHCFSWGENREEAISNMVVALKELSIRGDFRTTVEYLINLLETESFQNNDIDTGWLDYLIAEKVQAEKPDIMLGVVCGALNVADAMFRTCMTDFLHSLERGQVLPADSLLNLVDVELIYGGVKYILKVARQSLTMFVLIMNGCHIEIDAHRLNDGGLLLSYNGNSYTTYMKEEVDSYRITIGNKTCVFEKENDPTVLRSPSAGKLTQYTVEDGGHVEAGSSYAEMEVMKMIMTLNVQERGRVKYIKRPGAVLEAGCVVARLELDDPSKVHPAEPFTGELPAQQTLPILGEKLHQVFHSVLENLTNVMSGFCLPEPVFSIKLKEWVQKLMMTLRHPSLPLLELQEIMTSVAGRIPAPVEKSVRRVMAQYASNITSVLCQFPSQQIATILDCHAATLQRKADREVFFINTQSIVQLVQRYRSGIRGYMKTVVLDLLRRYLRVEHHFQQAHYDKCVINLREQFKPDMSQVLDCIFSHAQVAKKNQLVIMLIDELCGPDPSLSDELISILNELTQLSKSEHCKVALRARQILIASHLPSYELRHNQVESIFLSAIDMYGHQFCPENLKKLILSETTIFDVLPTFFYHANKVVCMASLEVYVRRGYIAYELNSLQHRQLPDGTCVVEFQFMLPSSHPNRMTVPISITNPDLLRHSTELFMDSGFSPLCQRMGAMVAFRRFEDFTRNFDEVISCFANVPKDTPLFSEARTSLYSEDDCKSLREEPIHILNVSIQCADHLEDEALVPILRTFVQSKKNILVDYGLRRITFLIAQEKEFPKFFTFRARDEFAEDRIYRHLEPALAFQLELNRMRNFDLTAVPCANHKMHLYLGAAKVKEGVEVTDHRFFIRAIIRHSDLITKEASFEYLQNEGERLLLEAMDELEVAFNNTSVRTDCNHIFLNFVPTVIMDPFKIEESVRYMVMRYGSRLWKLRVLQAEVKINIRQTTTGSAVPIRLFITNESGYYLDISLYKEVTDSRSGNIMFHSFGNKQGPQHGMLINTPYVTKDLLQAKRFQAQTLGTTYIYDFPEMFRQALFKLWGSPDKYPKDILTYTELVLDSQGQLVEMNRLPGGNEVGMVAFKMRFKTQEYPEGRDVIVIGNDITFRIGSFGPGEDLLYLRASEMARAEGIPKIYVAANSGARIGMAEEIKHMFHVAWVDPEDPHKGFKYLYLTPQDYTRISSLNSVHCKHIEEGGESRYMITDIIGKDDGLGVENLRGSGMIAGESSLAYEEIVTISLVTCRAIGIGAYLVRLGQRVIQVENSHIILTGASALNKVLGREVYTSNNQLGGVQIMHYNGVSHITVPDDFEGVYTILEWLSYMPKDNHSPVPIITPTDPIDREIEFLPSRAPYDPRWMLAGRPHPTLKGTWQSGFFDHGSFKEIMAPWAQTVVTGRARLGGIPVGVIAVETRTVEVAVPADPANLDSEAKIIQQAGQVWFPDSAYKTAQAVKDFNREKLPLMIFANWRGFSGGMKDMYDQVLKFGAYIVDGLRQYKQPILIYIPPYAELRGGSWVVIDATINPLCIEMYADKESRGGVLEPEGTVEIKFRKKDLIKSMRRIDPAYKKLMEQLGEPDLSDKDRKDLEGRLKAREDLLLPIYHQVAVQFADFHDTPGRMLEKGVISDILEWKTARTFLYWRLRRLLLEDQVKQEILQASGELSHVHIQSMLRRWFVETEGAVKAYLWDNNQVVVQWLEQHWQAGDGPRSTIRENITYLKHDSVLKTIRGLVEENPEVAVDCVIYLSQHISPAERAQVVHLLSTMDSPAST"}, "source": "patent US8835472B2", "about": "“Compounds, pharmaceutical compositions and uses thereof” (Boehringer Ingelheim International GmbH, priority 2010, dated 2014)", "target": "human ACC2 (Homo sapiens (Human), UniProt O00763)", "test": "ACC2 assay, spectrophotometric 384 well assay (NADH-linked, coupled lactate dehydrogenase/pyruvate kinase reaction)", "type": "biochemical", "settings": "hACC2 construct lacking the 128 N-terminal amino acids; 25° C., 340 nm over 15 minutes", "data": [{"smiles": "CCOc1ccc(C#Cc2ccc(CC(C)NC(=O)C3CC(OC)C3)cc2)cc1", "note": "(stereo not shown)", "values": [{"measurement": "IC50", "result": 860, "unit": "nM"}]}]}
